Molecular target: T1, human recombinant orexin OX1 receptors (Homo sapiens, UniProt O43613)
T1 construct: host or cells: CHO-S cells
Assay: Human Orexin GPCR Binding (Agonist Radioligand) Assay, [125I] Orexin A competition
Procedure: Radioligand competition binding assays were performed by Panlabs, Eurofins Pharma Discovery Services. Briefly, human recombinant orexin OX1 receptors expressed in CHO-S cells were used in modified HEPES buffer pH 7.4. […] Orexin A for 60 minutes at 25 °C. […] Orexin A specifically binding. Human recombinant OX2 receptors were used in modified HEPES buffer pH 7.4. […] Orexin A for 180 minutes at 25 °C. […] Orexin A specifically bound.

Sequences of proteins named here, by UniProt entry; tags and fusion partners are left off.
UniProt O43613, whole entry: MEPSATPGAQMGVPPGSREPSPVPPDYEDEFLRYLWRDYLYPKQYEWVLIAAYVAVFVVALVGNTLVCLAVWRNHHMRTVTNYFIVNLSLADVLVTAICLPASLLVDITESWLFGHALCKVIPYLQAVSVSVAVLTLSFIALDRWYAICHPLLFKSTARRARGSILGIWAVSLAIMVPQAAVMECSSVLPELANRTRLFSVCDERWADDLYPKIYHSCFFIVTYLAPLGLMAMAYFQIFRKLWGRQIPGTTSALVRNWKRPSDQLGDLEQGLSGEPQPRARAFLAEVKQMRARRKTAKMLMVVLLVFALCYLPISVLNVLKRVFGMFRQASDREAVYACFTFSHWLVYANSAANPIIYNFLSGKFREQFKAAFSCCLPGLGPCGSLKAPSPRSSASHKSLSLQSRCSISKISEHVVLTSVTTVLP

Cc1ccc(-n2nccn2)c(C(=O)N2CCN(c3nc4cc(Cl)ccc4o3)CC[C@H]2C)c1 [Suvorexant, reference compound] gave an IC50 of 27 nM.
